The record followed here is patent publication US5639597A, “Cell-free receptor binding assays, the production and use thereof” (Behringwerke Aktiengesellschaft, priority 1990, dated 1997).

Test [1] concerns the target T1, TNFRFc (extra-cellular portion of the 80 kD form of the human TNF receptor fused to Fc of human IgG1) (Homo sapiens, UniProt P20333).
T1 construct: made in house
As to the kind of experiment: Cell-free TNF binding assay, competition of ligands with TNF-alpha-biotin. As to conditions: 200 ng/ml TNFRFc for coating, 20 ng/ml TNF-alpha-biotin, concentrations used; FIG. 8. As for the experimental part:
(§1) The assay plate was washed five times with PBS containing 0.05% Tween 20 and then incubated with 275 μl of PBS containing 5% skim milk powder at room temperature for 60 min and then washed as above. Then a "checkerboard titration" was initially carried out in order to determine a suitable combination of receptor and ligand concentrations for the design of the assay. […] After washing as above, incubation with 100 μl of streptavidin-peroxidase (Amersham; 1:250 in DMEM/FCS) was carried out at room temperature for 30 min and then washed as above. The bound peroxidase was detected by the color produced in 100 μl of tetramethylbenzidine substrate solution (Behringwerke). After incubation at room temperature for 30 min, the extinction at 450 nm was measured.

The target in test [2] is T2, GM-CSFRFc (extracellular domain of the human GM-CSF receptor fused to Fc of human IgG1) (Homo sapiens, UniProt P15509).
T2 construct: made in house; host or cells: COS cells (transient; supernatants used)
As to the kind of experiment: Cell-free GM-CSF binding assay, competition of ligands with GM-CSF-biotin. As to conditions: 1000 ng/ml GM-CSFRFc for coating, 150 ng/ml GM-CSF-biotin, concentrations used; FIG. 14. As for the experimental part: as §1, with “ELISA plates (Nunc, type B) were coated overnight at 4° C. with 100 μl of an affinity-purified rabbit serum against the CH2 domain of human IgG (Dakopatts). The concentration was 10 μg/ml in PBS (137 mM NaCl, 2.7 mM KCl, 6.1 mM Na2 HPO4, 3.9 mM KH2 PO4, 0.5 mM MgCl2, 0.1 mM CaCl2, pH 7.0). The assay” for “The assay”
Transient expression of pGM-CSFRFc in COS cells was carried out. To do this, COS cells were transfected with pGM-CSFRFc with the aid of DEAE-dextran (EP-A 0325 262).

Test [3] addresses T3, IL-4RFc (extracellular portion of the human receptor for IL-4 fused to Fc of human IgG1) (Homo sapiens, UniProt P24394).
T3 construct: It is composed of the extracellular portion of the human receptor for IL-4
As to the kind of experiment: Cell-free IL-4 binding assay, competition of ligands with IL-4-biotin. As to conditions: 300 ng/ml IL-4-biotin, various concentrations of competitor; FIG. 3. As for the experimental part: as §1, with “ELISA plates (Nunc, type B) were coated overnight at 4° C. with 100 μl of an affinity-purified rabbit serum against the CH2 domain of human IgG (Dakopatts). The concentration was 10 μg/ml in PBS (137 mM NaCl, 2.7 mM KCl, 6.1 mM Na2 HPO4, 3.9 mM KH2 PO4, 0.5 mM MgCl2, 0.1 mM CaCl2, pH 7.0). The assay” for “The assay”

B1: IL-3: interleukin ligand used for competition (specificity control) (protein, UniProt P08700 20-152, looked up)
Interleukin-3: APMTQTTPLKTSWVNCSNMIDEIITHLKQPPLPLLDFNNLNGEDQDILMENNLRRPNLEAFNRAVKSLQNASAIESILKNLLPCLPLATAAPTRHPIHIKDGDWNEFRRKLTFYLKTLENAQAQQTTLSLAIF
Regarding B1, in test [1], the “effect on binding of TNF-alpha-biotin to TNFRFc” value is “no effect”. In addition, the “inhibition of binding of GM-CSF-biotin to GM-CSFRFc” value in test [2] is recorded as “do not inhibit”. Moreover, in test [3], the “competition with IL-4-biotin for binding to IL-4RFc” value is listed as “no binding activity”.
